Molecular target: T1, P. falciparum dihydroorotate dehydrogenase (pfDHODH) (Plasmodium falciparum, UniProt Q08210)
T1 sequence (Q08210 24-569): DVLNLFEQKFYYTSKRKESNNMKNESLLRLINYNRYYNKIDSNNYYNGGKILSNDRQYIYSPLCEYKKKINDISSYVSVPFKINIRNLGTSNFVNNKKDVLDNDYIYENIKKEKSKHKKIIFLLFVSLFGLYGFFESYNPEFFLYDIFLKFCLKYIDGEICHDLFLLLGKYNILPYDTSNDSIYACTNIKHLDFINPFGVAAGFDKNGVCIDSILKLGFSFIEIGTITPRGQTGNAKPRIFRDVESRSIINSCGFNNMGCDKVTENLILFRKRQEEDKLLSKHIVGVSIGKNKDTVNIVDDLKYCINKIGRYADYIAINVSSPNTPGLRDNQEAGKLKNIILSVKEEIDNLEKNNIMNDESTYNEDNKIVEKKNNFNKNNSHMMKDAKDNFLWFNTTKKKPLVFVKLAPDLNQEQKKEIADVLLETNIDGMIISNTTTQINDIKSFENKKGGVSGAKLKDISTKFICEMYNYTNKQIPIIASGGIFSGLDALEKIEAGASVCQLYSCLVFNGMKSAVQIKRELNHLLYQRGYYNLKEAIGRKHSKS
Assay: biochemical
Protocol: Measurement of enzyme inhibition. For studying inhibition of Plasmodium or human DHODH enzyme, two assays that are in routine use are described, for example, in Baldwin, et al. (2002) J Biol Chem., 277, 41827-41834, and Baldwin, et al. (2005) J. Biol. Chem., 280. 21847-21853. Briefly, these assays are as follows: 1) A […] assay thay that monitors 2,6-dichloroindophenol (DCIP) reduction at 600 nm (e=18.8 mM^−1 cm^−1) is performed as either a continuous assay where absorbance is recorded over time. The assay solution containing 100 mM HEPES, pH 8.0, 150 mM NaCl, 10% glycerol, 0.05% Triton X-[…] CoQ0 (coenzyme QD), […] L-dihydroorotate, and […] DCIP. Reactions are initiated by addition of enzyme to a final concentration of 5-50 nM and the temperature is maintained at 25° C with a circulating water bath. 2) A direct assay that follows the production of orotic acid by measuring the absorbance change at 287 nm (ε=4.3 mM^−1 cm^−1); DCIP is not included, but all other components of the assay are as described in method one. Inhibitor stocks are prepared in DMSO, and the inhibitors, such as GR-34, are added to these assays over a concentration range that encompasses their IC50 value and, the IC50's are determined from a plot of reaction rate in the presence of inhibitor/reaction rate in the absence of inhibitor (vi/vo) versus inhibitor concentration (Eq. 1). [formula]

## Cc1cc(Nc2ccc3ccccc3c2)n2ncnc2n1 [5-methyl-N-(naphthalen-2-yl)-[1,2,4]triazolo[1,5-a]pyrimidin-7-amine]
  IC50: 40 nM

Source: patent US20080027079A1, “DIHYDROOROTATE DEHYDROGENASE INHIBITORS WITH SELECTIVE ANTI-MALARIAL ACTIVITY” (Board of Regents, University of Texas System, priority 2006, published 2008)
